The results in this text go back to US20240209302A1, “SYSTEMS, METHODS, AND DEVICES FOR EX VIVO ANALYSIS OF RESECTED TISSUE SAMPLES” (The United States of America,as represented by the …, priority 2020, published 2024).

The assay has as its system CD45-positive cells in gastric cancer metastases to the peritoneum. Nature of the assay: Live imaging of immune cell tracking in perfused ex vivo tissue after IL-2. In kind it is cell-based, human. To be noted: IL2 added to culture medium; live imaging after 4 days in culture. How it is done: Finally, immune cells can be tracked and monitored in the system of FIG. 7A. With the application of IL-2, a leucocyte activating cytokine, cell velocity and displacement is quantifiable. This can be an important metric for agents that aim to activate various immune subpopulations. For example, FIGS. 11B-11C show Interferon-γ and IL-12 secretion retained after 4 days in culture. Sample platforms in culture on Day 0 and Day 4 were stimulated with PMA (10 ng/ml) or LPS (100 ng/mL) for twelve hours and media was tested for Interferon-γ and IL-12 respectively across various histologies. […] In FIGS. 11E-11F, sample platforms bearing gastric cancer metastases to the peritoneum was evaluated via life imaging after 4 days in culture in system 700 of FIG. 7A.
In any of the above discussed examples, tissue from system 700 was subject to similar tumor imaging techniques. For example, for live imaging, sample platforms were removed from the system 700 at indicated time points and transferred to a 24 well plate containing 1 ml perfusate supplemented with 0.5 μg fluorophore-conjugated antibodies (CD45; CD44; CD117) and incubated for 3 hours at 37° C. […]
Image acquisition was performed on an inverted Leica SP8 setup using multiphoton excitation at 870 nm together with a 25×/0.95 W VISIR lens. […] Images were analyzed using ImageJ software. […]

Turning to interleukin-2 [IL2], the “displacement of CD45-positive cells” value is listed as “increase” and the “velocity of CD45-positive cells” value was “increase”.
